Yeast mating assay B: variants of the scFv Ab-14

Values reported by Li et al. 2023, doi:10.1038/s41467-023-39022-2 (FLAb copy).

All variants were tested on one target, the spike HR2 peptide PDVDLGDISGINAS (SARS-CoV-2).

Ab-14 is the parent antibody, in scFv form: VH, then three GGGGS repeats, then VL. The heavy chain is unchanged in all variants.
VH: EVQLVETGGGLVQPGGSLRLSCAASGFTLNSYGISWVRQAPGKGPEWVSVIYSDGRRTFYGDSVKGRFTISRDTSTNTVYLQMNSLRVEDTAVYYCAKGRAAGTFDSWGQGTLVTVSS
VL: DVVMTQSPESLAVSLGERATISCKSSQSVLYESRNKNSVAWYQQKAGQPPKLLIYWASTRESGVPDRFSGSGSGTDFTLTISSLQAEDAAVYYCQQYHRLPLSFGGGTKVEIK

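The starting antibody came from a phage panning campaign against this peptide. This is the validation round: designs drawn from the data on random variants, tested in the same kind of assay. Several design methods are mixed in this list. The scFvs were displayed on barcoded MATa yeast, the peptide on MATalpha yeast. Binding brings cells together so that they mate, and sequencing counts the barcode pairs among the diploids. A regression on co-assayed BCL2-family reference pairs converts the normalised counts of each replicate to an apparent Kd. There are six technical replicates.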

Each variant is given by its three light chain CDRs, as the data file delimits them; those of the parent are KSSQSVLYESRNKNSVA, WASTRES, QQYHRLPLS.
Affinities are written as log10 Kd with Kd in nM; a lower number is a better binder.
The mean shown is taken over the replicates in which the pair was detected.
Where no diploid with the target was found in any replicate, the entry reads "no signal": below detection, most likely a poor binder, though not proof of it.
The authors averaged sequences with at least three values out of six and counted those with two or fewer as poor binders.
The parent sequence was in this pool as ten entries: three were never detected, three once, and four in most replicates, with averages from 0.34 to 2.37.
Empty control strains, which show no peptide, gave a signal in 4% of pairings with all light chain designs; the median was 2.64 and 95% of these signals were weaker than 1.59. No background was subtracted. The control count says in how many pairings with the empty strains this scFv gave a signal.
Values of this round are not directly comparable with the first-round values of the same sequences.

CDR-L1,CDR-L2,CDR-L3,"log10 Kd (nM), mean",detected,signal with controls
LWSQSELLESRNHNSVA,DASTRCS,QQYHRLPLS,0.08,6 of 6,1 of 18
KSSQLILYESRYKNSVA,WASTRES,QQYHRLPLS,no signal,0 of 6,0 of 18
FLAYALDQDGLAKNNIA,QVNLLEN,QQYERLPLA,1.52,6 of 6,2 of 18
KLLQSVLLWSRNWNSVA,NASTREL,QQYHRLPLS,0.47,6 of 6,2 of 18
KLRQSTLYESSNKNSVA,WASTREN,QWYHRLPLS,no signal,0 of 6,0 of 18
KLSQSVLYESRPKNSVA,NASTRES,QQYHRLPLS,-0.19,6 of 6,2 of 18
KSLQSVVYEFRNKNSVA,HASTRED,QQYHRLPLS,-0.15,6 of 6,0 of 18
KFSQSELYGERDGNSVA,NASQRLS,QQYHRLPLS,0.66,6 of 6,2 of 18
KVSQSVLYESQNKNSVA,WASTRED,QQYHRLPLS,0.82,6 of 6,0 of 18
SSSQEVMYESRNKNSVA,WASTRES,QQYHRLPLS,1.98,2 of 6,0 of 18
MLSQLMAYGSRYANSVA,QASTRED,QQYHRLPLS,1.04,6 of 6,0 of 18
KVSQSHLYESRNKNAVA,HASTRES,QQYHRLPLS,-0.17,6 of 6,4 of 18
HVTMELAEEKNSYRNIA,DASMRLA,QQYVRLPLG,0.25,6 of 6,3 of 18
MISQSFLYGSRAYNSVA,QTSTRES,QQYDRLPLS,0.76,6 of 6,0 of 18
HLGGTMTWESKARNSVA,QSNTRAE,QQYHRLPLS,0.53,6 of 6,1 of 18
KLSQSEEYESRNKNSVA,NASTRMS,QQYHRLPLS,-0.28,6 of 6,2 of 18
MMSQVTGSGTRHRNNVA,QTSTREP,QQYDRLPLM,1.38,6 of 6,0 of 18
KLSGSMLYEQRMLNSVA,QASQRLS,QQYHRLPLS,0.09,6 of 6,0 of 18
VLSQSVLYESRNKNSVA,NASTRES,QQYHRLPLS,-0.04,6 of 6,0 of 18
RMQEDNQLGTNIGNNIA,EHQTVFD,QQYAHLPLQ,1.67,5 of 6,0 of 18
KVSDSAAFLSRNRNSVA,DNSTRGS,QQYHRLPLS,0.11,6 of 6,0 of 18
KKRQSTLYESRNKNSVA,WASTRES,QQYHRLHLS,no signal,0 of 6,0 of 18
KLSQSELYESRNKNSVA,SASTRSS,QQYHRLPLS,0.47,6 of 6,0 of 18
KMQGSNLYESRNCNSVA,NASTRLW,QQYHRLPLS,0.59,6 of 6,0 of 18
KLSAQYGVQSVMRNSVA,QNSTREE,QQYDHLPLS,no signal,0 of 6,0 of 18
MLDNCQDEYYQKNNNVA,EMNIRCY,QQYGRLPLM,no signal,0 of 6,1 of 18
KLEQSTLYESRNKNSVA,LASTRES,QQYHRLPLS,1.25,6 of 6,0 of 18
KISQMVTYESTWHGAIA,QTSERES,QQYHRLPFS,0.72,6 of 6,3 of 18
KVSQQNLYEQRNANNVA,NASYRES,QQYHRLPLS,-0.45,6 of 6,0 of 18
KLSQSYEYESNNSNSVA,NASQREH,QQYHRLPLR,0.72,6 of 6,2 of 18
KLQMSELPESRNKNSVA,WASTRET,QQYHRLPLS,0.32,6 of 6,0 of 18
KISQMYRYEQQNSSSIA,EANTREN,QSYHRLPLS,2.79,5 of 6,1 of 18
KSSQSVLYTSENKNSVA,HASIRES,QQYHRLPLS,0.55,6 of 6,0 of 18
KVAQSVLYESRNKNSVA,NASTRES,QQYHRLPLS,0.03,6 of 6,0 of 18
NMSDSIEKMASIERNIA,DETTRAM,QQYYRLPLS,0.56,6 of 6,1 of 18
KSSESYLYESRNKNSVA,AASTRES,QQYHRLPLS,0.25,6 of 6,0 of 18
TLYGLSNSMSKNKNNVA,EMSTREP,QQYDRLPLI,0.34,6 of 6,1 of 18
TISQLTSSFSQNINNVA,EVSTRLK,QQYDRLPLA,0.68,6 of 6,1 of 18
KFSQSELYESRNKNSVA,EASTRES,QQYHRLPLS,-0.40,6 of 6,0 of 18
KLSMTSGMEHVNRNSVA,ELVTRMS,QQYNRLPLS,0.48,6 of 6,0 of 18
RMNKFMSEITGARNSIA,GAEHLAQ,QHYHRLPLS,0.90,6 of 6,0 of 18
KFSQSVLYESRNKNSVA,EASTREV,QQYHRLPLS,-0.25,6 of 6,0 of 18
KVRQSMLYESRNKNSVA,NASTRES,QQYHRLPLS,-0.20,6 of 6,0 of 18
KYSQSVLYESRNKNSVA,DASTRRS,QQYHRLPLS,0.27,6 of 6,0 of 18
KLSQSWLYEDRVKNSVA,NASTRES,QQYHRLPLS,0.56,6 of 6,1 of 18
KSSQEQDYQSRNINSVA,DASLRES,QQYHRLPLS,0.62,6 of 6,0 of 18

Repeated from above, the 3 best binders with a signal in all replicates:

{"CDR-L1": "KVSQQNLYEQRNANNVA", "CDR-L2": "NASYRES", "CDR-L3": "QQYHRLPLS", "log10 Kd (nM), mean": "-0.45", "detected": "6 of 6", "signal with controls": "0 of 18"}
{"CDR-L1": "KFSQSELYESRNKNSVA", "CDR-L2": "EASTRES", "CDR-L3": "QQYHRLPLS", "log10 Kd (nM), mean": "-0.40", "detected": "6 of 6", "signal with controls": "0 of 18"}
{"CDR-L1": "KLSQSEEYESRNKNSVA", "CDR-L2": "NASTRMS", "CDR-L3": "QQYHRLPLS", "log10 Kd (nM), mean": "-0.28", "detected": "6 of 6", "signal with controls": "2 of 18"}